Source: patent publication US6162875A, “Low nitrosamine systems for rubber vulcanization” (Robinson Brothers Limited, priority 1992, dated 2000)

Experiments:
[1] = system: TA 1535; experiment: Test to check the mutability of the bacterial strains, TA 1535; conditions: 5.0 μg/plate, without metabolic activation
[2] = system: TA 100; experiment: Test to check the mutability of the bacterial strains, TA 100; conditions: 5.0 μg/plate, without metabolic activation

CCN(N=O)C(=N)N[N+](=O)[O-]
mutagenic to TA 1535 [1]: weakly mutagenic | mutagenic to TA 100 [2]: weakly mutagenic
